These molecules were tested against RORc ligand binding domain (Homo sapiens (Human), UniProt P51449). Details: read-out: RORc IC50; two values in a cell = separated enantiomers, stereochemical identity not determined.

Chains of the proteins cited; added tags and fusions are not shown. Residues count along the entry.
UniProt P51449, 269-508: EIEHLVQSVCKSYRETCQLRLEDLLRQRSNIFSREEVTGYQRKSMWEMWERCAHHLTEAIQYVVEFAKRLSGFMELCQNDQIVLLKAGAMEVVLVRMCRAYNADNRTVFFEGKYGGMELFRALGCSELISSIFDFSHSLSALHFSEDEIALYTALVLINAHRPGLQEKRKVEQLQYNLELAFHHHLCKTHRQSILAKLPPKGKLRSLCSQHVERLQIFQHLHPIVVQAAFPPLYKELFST

| Compound | IC50 [nM] |
| --- | --- |
| O=S1(=O)CCN(c2ccc(CN(CC(F)(F)F)S(=O)(=O)Cc3ccccc3)c(F)c2)CC1 [Compound 94, N-[4-(1,1-Dioxo-thiomorpholin-4-yl)-2-fluoro-benzyl]-C-phenyl-N-(2,2,2-trifluoro-ethyl)-methanesulfonamide] | 165 |
| CC(C)CN(Cc1ccc(N2CCC(N3CCS(=O)(=O)CC3)CC2)cc1)S(=O)(=O)Cc1ccccc1 [Compound 191, N-(4-(4-(1,1-dioxidothiomorpholino)piperidin-1-yl)benzyl)-N-isobutyl-1-phenylmethanesulfonamide] | 3200 |
| CC(=O)N1CCN(c2ccc(CN(C3CCC3)S(=O)(=O)c3ccccc3)c(F)c2)CC1 [Compound 135, N-[4-(4-Acetyl-piperazin-1-yl)-2-fluoro-benzyl]-N-cyclobutyl-benzenesulfonamide] | 249 |
| CC(C)CN(C(C)c1ccc(N2CCN(S(=O)(=O)N(C)C)CC2)cc1)S(=O)(=O)Cc1ccccc1 (stereo in doubt) [Compound 129, 4-{4-[(S)-1-(Isobutyl-phenylmethanesulfonyl-amino)-ethyl]-phenyl}-piperazine-1-sulfonic acid dimethylamide] | 127 |
| CCN1CC[C@@H](Nc2ccc(CN(CC(C)C)S(=O)(=O)Cc3ccccc3)cc2)[C@@H](F)C1 [Compound 207, N-(4-(((3S,4R)-1-ethyl-3-fluoropiperidin-4-yl)amino)benzyl)-N-isobutyl-1-phenylmethanesulfonamide] | 2200 |
| CC(C)CN(C(C)c1ccc(N2CCN(S(=O)(=O)N(C)C)CC2)cc1)S(=O)(=O)Cc1ccccc1 (stereo in doubt) [Compound 126, 4-{4-[(R)-1-(Isobutyl-phenylmethanesulfonyl-amino)-ethyl]-phenyl}-piperazine-1-sulfonic acid dimethylamide] | 3700 |
| CC(C)CN(Cc1ccc(N2CC3(CCOC3)C2)cc1)S(=O)(=O)Cc1ccccc1 [Compound 186, N-(4-(6-oxa-2-azaspiro[3.4]octan-2-yl)benzyl)-N-isobutyl-1-phenylmethanesulfonamide] | 59 |
| CC(C)CN(Cc1ccc(N2C[C@H]3COC[C@H]3C2)cc1)S(=O)(=O)Cc1ccccc1 [Compound 187, N-isobutyl-1-phenyl-N-(4-((3aR,6aS)-tetrahydro-1H-furo[3,4-c]pyrrol-5(3H)-yl)benzyl)methanesulfonamide] | 130 |
| CCN1CC[C@H](Nc2ccc(CN(CC(C)C)S(=O)(=O)Cc3ccccc3)cc2)[C@H](F)C1 [Compound 208, N-(4-(((3R,4S)-1-ethyl-3-fluoropiperidin-4-yl)amino)benzyl)-N-isobutyl-1-phenylmethanesulfonamide] | 1600 |
| CC(=O)N1CCN(c2ccc(CN(C3(C)CC3)S(=O)(=O)Cc3ccccc3)cc2)CC1 [Compound 147, N-(4-(4-acetylpiperazin-1-yl)benzyl)-N-(1-methylcyclopropyl)-1-phenylmethanesulfonamide] | 57 |
| CC(=O)N1CCC(Oc2ccc(CN(CC(C)C)S(=O)(=O)Cc3ccccc3)cc2)CC1 [Compound 150, N-(4-((1-acetylpiperidin-4-yl)oxy)benzyl)-N-isobutyl-1-phenylmethanesulfonamide] | 120 |
| CC(=O)N1CCN(c2ccc(CN(CC(F)(F)F)S(=O)(=O)C(C)(C)c3ccccc3)c(F)c2)CC1 [Compound 106, 2-Phenyl-propane-2-sulfonic acid [4-(4-acetyl-piperazin-1-yl)-2-fluoro-benzyl]-(2,2,2-trifluoro-ethyl)-amide] | 26 |
| CC(C)CN(Cc1ccc(O[C@H]2CCN(S(C)(=O)=O)C2)cc1)S(=O)(=O)Cc1ccccc1 [Compound 176, (S)-N-isobutyl-N-(4-((1-(methylsulfonyl)pyrrolidin-3-yl)oxy)benzyl)-1-phenylmethanesulfonamide] | 240 |
| CC(C)CN(Cc1ccc(N2CCC3(COC3)C2)cc1)S(=O)(=O)Cc1ccccc1 [Compound 182, N-(4-(2-oxa-6-azaspiro[3.4]octan-6-yl)benzyl)-N-isobutyl-1-phenylmethanesulfonamide] | 53 |
| CN(C)S(=O)(=O)N1CCN(c2ccc(CN(CC(F)(F)F)S(=O)(=O)Cc3ccccc3)c(F)c2)CC1 [Compound 76, 4-(3-Fluoro-4-{[phenylmethanesulfonyl-(2,2,2-trifluoro-ethyl)-amino]-methyl}-phenyl)-piperazine-1-sulfonic acid dimethylamide] | 32 |
| CC(=O)N1CCN(c2ccc3c(c2)OCCN(S(=O)(=O)Cc2ccccc2)C3)CC1 [Compound 58, 1-[4-(4-Phenylmethanesulfonyl-2,3,4,5-tetrahydro-benzo[f][1,4]oxazepin-8-yl)-piperazin-1-yl]-ethanone] | 3500 |
| CC(C)CN(Cc1ccc(N2CCC3(CCCO3)C2)cc1)S(=O)(=O)Cc1ccccc1 (stereo not drawn) [Compound 185, N-(4-(1-oxa-7-azaspiro[4.4]nonan-7-yl)benzyl)-N-isobutyl-1-phenylmethanesulfonamide] | 80 |

Next, values leading:

| IC50 [nM] | Compound |
| --- | --- |
| 99 | CC(=O)N1CCN(c2ccc(CN(C3CCC3)S(=O)(=O)c3cccc(C(F)(F)F)c3)c(F)c2)CC1 [Compound 125, N-[4-(4-Acetyl-piperazin-1-yl)-2-fluoro-benzyl]-N-cyclobutyl-3-trifluoromethyl-benzenesulfonamide] |
| 115 | COc1ccc(S(=O)(=O)N(Cc2ccc(N3CCN(C(C)=O)CC3)cc2F)C2CCC2)cc1 [Compound 45, N-[4-(4-Acetyl-piperazin-1-yl)-2-fluoro-benzyl]-N-cyclobutyl-4-methoxy-benzenesulfonamide] |
| 76 | CC(=O)N1CCN(c2ccc(CN(C3CCC3)S(=O)(=O)c3ccc(Cl)cc3Cl)c(F)c2)CC1 [Compound 38, N-[4-(4-Acetyl-piperazin-1-yl)-2-fluoro-benzyl]-2,4-dichloro-N-cyclobutyl-benzenesulfonamide] |
| 10 | CC(=O)N1CCN(c2ccc(CN(C3CCC3)S(=O)(=O)Cc3ccccc3F)c(F)c2)CC1 [Compound 92, N-[4-(4-Acetyl-piperazin-1-yl)-2-fluoro-benzyl]-N-cyclobutyl-C-(2-fluoro-phenyl)-methanesulfonamide] |
| 218 | CC(=O)N1CCN(c2ccc(CN(C3CCC3)S(=O)(=O)c3ccc(F)cc3)c(F)c2)CC1 [Compound 134, N-[4-(4-Acetyl-piperazin-1-yl)-2-fluoro-benzyl]-N-cyclobutyl-4-fluoro-benzenesulfonamide] |
| 76 | CC(=O)N1CCN(c2ccc(CN(C3CCC3)S(=O)(=O)c3ccccc3F)c(F)c2)CC1 [Compound 37, N-[4-(4-Acetyl-piperazin-1-yl)-2-fluoro-benzyl]-N-cyclobutyl-2-fluoro-benzenesulfonamide] |
| 25 | CC(=O)N1CCN(c2ccc(CN(C3CCC3)S(=O)(=O)Cc3cccc(F)c3)c(F)c2)CC1 [Compound 90, N-[4-(4-Acetyl-piperazin-1-yl)-2-fluoro-benzyl]-N-cyclobutyl-C-(3-fluoro-phenyl)-methanesulfonamide] |
| 70 | CC(=O)N1CCN(c2ccc(CN(C3CCC3)S(=O)(=O)c3ccccc3C)c(F)c2)CC1 [Compound 36, N-[4-(4-Acetyl-piperazin-1-yl)-2-fluoro-benzyl]-N-cyclobutyl-2-methyl-benzenesulfonamide] |
| 487 | CC(=O)N1CCN(c2ccc(CN(C3CCC3)S(=O)(=O)c3cccc(C#N)c3)c(F)c2)CC1 [Compound 68, N-[4-(4-Acetyl-piperazin-1-yl)-2-fluoro-benzyl]-3-cyano-N-cyclobutyl-benzenesulfonamide] |
| 9 | CC(=O)N1CCN(c2ccc(CN(C3CCC3)S(=O)(=O)Cc3ccccc3Cl)c(F)c2)CC1 [Compound 85, N-[4-(4-Acetyl-piperazin-1-yl)-2-fluoro-benzyl]-C-(2-chloro-phenyl)-N-cyclobutyl-methanesulfonamide] |
| 290 | CC(=O)N1CCN(c2ccc(CN(C3CCC3)S(=O)(=O)c3ccc(OC(F)(F)F)cc3)c(F)c2)CC1 [Compound 67, N-[4-(4-Acetyl-piperazin-1-yl)-2-fluoro-benzyl]-N-cyclobutyl-4-trifluoromethoxy-benzenesulfonamide] |
| 65 | CC(=O)N1CCN(c2ccc(CN(C3CCC3)S(=O)(=O)c3cccc(F)c3)c(F)c2)CC1 [Compound 35, N-[4-(4-Acetyl-piperazin-1-yl)-2-fluoro-benzyl]-N-cyclobutyl-3-fluoro-benzenesulfonamide] |
| 33 | CC(=O)N1CCN(c2ccc(CN(C3CCC3)S(=O)(=O)c3cccc(C(C)(C)C)c3)c(F)c2)CC1 [Compound 26, N-[4-(4-Acetyl-piperazin-1-yl)-2-fluoro-benzyl]-3-tert-butyl-N-cyclobutyl-benzenesulfonamide] |
| 15 | CC(=O)N1CCN(c2ccc(CN(C3CCC3)S(=O)(=O)Cc3ccccc3)c(F)c2)CC1 [Compound 96, N-[4-(4-Acetyl-piperazin-1-yl)-2-fluoro-benzyl]-N-cyclobutyl-C-phenyl-methanesulfonamide] |
| 11 | CC(=O)N1CCN(c2ccc(CN(C3CCC3)S(=O)(=O)Cc3ccc(F)cc3F)c(F)c2)CC1 [Compound 88, N-[4-(4-Acetyl-piperazin-1-yl)-2-fluoro-benzyl]-N-cyclobutyl-C-(2,4-difluoro-phenyl)-methanesulfonamide] |
| 18 | CC(=O)N1CCN(c2ccc(CN(C3CCC3)S(=O)(=O)c3ccc(C(C)(C)C)cc3)c(F)c2)CC1 [Compound 17, N-[4-(4-Acetyl-piperazin-1-yl)-2-fluoro-benzyl]-4-tert-butyl-N-cyclobutyl-benzenesulfonamide] |
| 22 | CC(=O)N1CCN(c2ccc(CN(C3CCC3)S(=O)(=O)c3cccc(Cl)c3)c(F)c2)CC1 [Compound 18, N-[4-(4-Acetyl-piperazin-1-yl)-2-fluoro-benzyl]-3-chloro-N-cyclobutyl-benzenesulfonamide] |
| 92 | CC(=O)N1CCN(c2ccc(CN(C3CCC3)S(=O)(=O)c3ccc(Cl)cc3)c(F)c2)CC1 [Compound 124, N-[4-(4-Acetyl-piperazin-1-yl)-2-fluoro-benzyl]-4-chloro-N-cyclobutyl-benzenesulfonamide] |
| 49 | CC(=O)N1CCN(c2ccc(CN(C3CCC3)S(=O)(=O)c3cc(F)cc(F)c3)c(F)c2)CC1 [Compound 116, N-[4-(4-Acetyl-piperazin-1-yl)-2-fluoro-benzyl]-N-cyclobutyl-3,5-difluoro-benzenesulfonamide] |
